The values below come from ChEMBL document CHEMBL1124909 (J Med Chem, 1990).

Data set [1] relates to Mus musculus. Put plainly: The percentage 30-day survival of the mice at 75 mg/kg dose, with the radiation dose of 9.5 GY.
Data set [2] deals with Mus musculus. Description: The percentage 30-day survival of the mice at 100 mg/kg dose, with the radiation dose of 9.5 GY.
The subject of data set [3] is Mus musculus. Description: The percentage 30-day survival of the mice at 37.5 mg/kg dose, with the radiation dose of 9.5 GY.
Data set [4] concerns Mus musculus. Description: The percentage 30-day survival of the mice at 150 mg/kg dose, with the radiation dose of 9.5 GY.
Data set [5] relates to Mus musculus. Put plainly: The percentage 30-day survival of the mice at 300 mg/kg dose, with the radiation dose of 9.5 GY.
Data set [6] concerns Mus musculus. Put plainly: The percentage 30-day survival of the mice at 75 mg/kg dose, with the radiation dose of 10 GY.
For data set [7], the system named is Mus musculus. Description: The percentage 30-day survival of the mice at 150 mg/kg dose, with the radiation dose of 10 GY.
Data set [8] concerns Mus musculus. Put plainly: The percentage 30-day survival of the mice at 37.5 mg/kg dose, with the radiation dose of 10 GY.
Data set [9] concerns Mus musculus. Put plainly: The percentage 30-day survival of the mice at 600 mg/kg dose, with the radiation dose of 10 GY. The format is functional.
The subject of data set [10] is Mus musculus. Put plainly: The percentage 30-day survival of the mice at 300 mg/kg dose, with the radiation dose of 10 GY. The format is functional.
Data set [11] has as its system Mus musculus. Description: Antiradiation tests were performed in groups of 10 mice against lethal gamma-radiation 30 min after intraperitoneal dosing. Lethal dose that causes toxic deaths in mice. Conditions: in vivo, ip, 0.5 h.
The subject of data set [12] is Mus musculus. Description: The percentage 30-day survival of the mice at 25 mg/kg dose, with the radiation dose of 10 GY.
In data set [13] the test system is Mus musculus. Put plainly: The percentage 30-day survival of the mice at 50 mg/kg dose, with the radiation dose of 10 GY.

Some results are limits rather than exact numbers.

For `O=P([O-])(O)SCCNCCC1=NCCN1.[Li+]`, the Survival in the data set on Mus musculus [1] came to 20%; in the data set on Mus musculus [2], 80%; in the data set on Mus musculus [3] it was 0%.
For `N=C(S)CCNCCSP(=O)([O-])O.[Li+]`, the Survival in the data set with Mus musculus [1] turned out to be 10%; in the data set on Mus musculus [4] it was 40%; with Mus musculus [5] it was 100%.
Turning to `C/N=C(/S)CCNCCSP(=O)([O-])O.[Li+]`, the Survival in the data set on Mus musculus [6] stood at 0%; in the data set with Mus musculus [7], 80%; in the data set with Mus musculus [8] it was 0%.
As usually defined, the LD50 is the dose at which mortality reaches 50%. Low readings indicate a more toxic substance, high ones a less toxic substance. On to `CNC(=O)CCNCCSP(=O)([O-])O.[Li+]`, for which the Survival with Mus musculus [9] was found to be 80%; with Mus musculus [10], 20%. In the data set on Mus musculus [11], this compound registered an LD50 greater than 600 mg/kg.
With `CC(C)(C)NC(=O)CCNCCSP(=O)([O-])[O-].[Li+].[Li+]`, the Survival in the data set on Mus musculus [1] worked out at 40%; in the data set on Mus musculus [4] it was 60%; in the data set with Mus musculus [5] it was 80%. This compound also had an LD50 in the data set with Mus musculus [11] greater than 300 mg/kg.
For `NC(=O)CCNCCSP(=O)([O-])O.[Li+]`, the Survival in the data set with Mus musculus [9] stood at 70%; in the data set on Mus musculus [10], 10%; in the data set on Mus musculus [7], 0%.
With `N=C(N)CCNCCSP(=O)(O)O`, the Survival came out at 70% with Mus musculus [1], 100% with Mus musculus [4] and 10% in the data set on Mus musculus [3].
Regarding `NC(=O)CCNCCSP(=O)(O)O`, the Survival in the data set on Mus musculus [12] and in the data set with Mus musculus [13] was 0% each time.
As for `C/N=C(/N)CCNCCSP(=O)(O)O`, the Survival in the data set on Mus musculus [1] came to 50%; in the data set on Mus musculus [4], 80%; in the data set with Mus musculus [3], 30%.
